Assay results as given in patent US20190092850A1 (NUMAB INNOVATION, published 2019).

The chains behind the UniProt entries cited, without tags or fusion partners. Residues count along the entry.
UniProt P01375, 77-233 limits assumed: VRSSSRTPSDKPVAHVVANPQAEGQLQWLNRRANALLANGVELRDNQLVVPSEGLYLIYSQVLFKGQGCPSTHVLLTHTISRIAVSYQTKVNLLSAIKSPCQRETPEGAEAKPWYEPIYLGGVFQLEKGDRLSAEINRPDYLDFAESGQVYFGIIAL

Biological target: recombinant human TNFα (human, UniProt P01375 77-233)
Test: cell-based or functional assay

B1: infliximab (antibody, V domains shown)
VH: EVKLEESGGGLVQPGGSMKLSCVASGFIFSNHWMNWVRQSPEKGLEWVAEIRSKSINSATHYAESVKGRFTISRDDSKSAVYLQMTDLRTEDTGVYYCSRNYYGSTYDYWGQGTTLTVSS
VL: DILLTQSPAILSVSPGERVSFSCRASQFVGSSIHWYQQRTNGSPRLLIKYASESMSGIPSRFSGSGSGTDFTLSINTVESEDIADYYCQQSHSWPFTFGSGTNLEVKR
- IC50, neutralization of TNFα-induced apoptosis of L929 fibroblasts (100 pM human TNFα): 36.2 ng/ml
